The list shows a part of the results, in another mix than the full data. Records with an inconclusive call do not appear. Calls of active or inactive are those of the source. Calls follow the shape of the dose curve; as a rule, active = well fitted inhibition curve with a large enough effect; inconclusive = small, poorly fitted or top-dose-only effect; inactive = no such curve, though single readings can be large or run the other way.
% is scaled to controls: 0 for no effect and ±100 for the full control effect.

The assay can be described thus: qHTS Assay for Inhibitors of the ERK Signaling Pathway using a Homogeneous Screening Assay. Also: nearly all actives have a fitted effect of over 55% in size. As to conditions: HEK293-V1b, vasopressin-stimulated pERK AlphaScreen; at 57.5 µM (top of the series). In general terms: Quantitative high-throughput screening tests each substance at several concentrations.
Regarding `O=[N+]([O-])C(Cl)(Cl)Cl`, the activity, negative = inhibition was inactive: 10%.

On to `CN(CCCl)CCCl`, for which the activity, negative = inhibition is inactive: 7.54%.
